Conditions: supplement included in feed

**Q.** With basic zinc chloride [Zn5(OH)8Cl2.(H2O)] as the substance, how does the absorption by chicks read?
**A.** readily absorbed

— patent US8802180B2, “Micronutrient supplement” (Heritage Technologies, LLC, priority 2011, dated 2014)
